# Permeability data for macrocyclic peptides

PAMPA is the parallel artificial membrane permeability assay, which has no cells and reads passive diffusion.
P is given in units of 10^-6 cm/s (from log10 values with two decimals); larger means faster passage.

| compound | PAMPA (10^-6 cm/s) |
|---|---|
| CC(C)C[C@@H]1C(=O)N(C)[C@@H](CC(C)C)C(=O)N2CCC[C@@H]2C(=O)N(Cc2ccccc2)CC(=O)N[C@@H](Cc2ccccc2)C(=O)N2CCC[C@H]2C(=O)N(C)[C@@H](C)C(=O)N1C | 2.6 |
| CC(C)C[C@@H]1NC(=O)[C@@H](C)N(C)C(=O)[C@H](Cc2ccccc2)NC(=O)[C@H](CC(C)C)NC(=O)[C@H]2CCCN2C(=O)C[C@H](Cc2ccccc2)NC1=O | 0.68 |
| CC(C)C[C@@H]1C(=O)N[C@@H](Cc2ccccc2)C(=O)N2CCC[C@@H]2C(=O)N[C@H](C)C(=O)N[C@H](CC(C)C)C(=O)N(C)[C@@H](CC(C)C)C(=O)N2CCC[C@H]2C(=O)N1C | 1.1 |
| CCCN1CC(=O)N(Cc2ccccc2)CC(=O)N(C)[C@H](CC(C)C)C(=O)N2CCC[C@@H]2C(=O)N[C@H](CC(C)C)C(=O)N[C@@H](Cc2ccccc2)C(=O)N2CCC[C@H]2C1=O | 0.54 |
| CC(C)C[C@@H]1NC(=O)[C@@H](CC(C)C)N(C)C(=O)[C@H](C)NC(=O)[C@H]2CCCN2C(=O)[C@H](Cc2ccccc2)NC(=O)CN(Cc2ccccc2)C(=O)[C@H]2CCCN2C1=O | 3.1 |
| CC(C)C[C@@H]1C(=O)N[C@@H](Cc2ccccc2)C(=O)N2CCC[C@H]2C(=O)N(C)[C@@H](C)C(=O)N[C@H](CC(C)C)C(=O)N(Cc2ccccc2)CC(=O)N2CCC[C@H]2C(=O)N1C | 0.56 |
| CC(C)C[C@H]1NC(=O)C[C@H](Cc2ccccc2)NC(=O)[C@H](Cc2ccccc2)NC(=O)[C@H](CC(C)C)N(C)C(=O)[C@@H]2CCCN2C(=O)[C@H](CC(C)C)N(C)C1=O | 9.5 |
| CC(C)C[C@@H]1C(=O)N[C@@H](Cc2ccccc2)C(=O)N2CCC[C@H]2C(=O)N[C@@H](Cc2ccccc2)CC(=O)N(C)[C@@H](CC(C)C)C(=O)N(C)[C@@H](CC(C)C)C(=O)N2CCC[C@@H]2C(=O)N1C | 6.2 |
| CCCN1CC(=O)N[C@H](CC(C)C)C(=O)N(C)[C@@H](CC(C)C)C(=O)N2CCC[C@H]2C(=O)N[C@@H](CC(C)C)C(=O)N[C@@H](Cc2ccccc2)C(=O)N2CCC[C@H]2C1=O | 0.85 |
| CC(C)C[C@H]1NC(=O)[C@@H](C)N(C)C(=O)[C@H]2CCCN2C(=O)[C@H](Cc2ccccc2)NC(=O)CN(Cc2ccccc2)C(=O)[C@H]2CCCN2C(=O)[C@@H](CC(C)C)NC1=O | 1.2 |
| CC(C)C[C@@H]1C(=O)N[C@@H](Cc2ccccc2)C(=O)N2CCC[C@@H]2C(=O)N(C)[C@@H](C)C(=O)N(Cc2ccccc2)CC(=O)N(C)[C@@H](CC(C)C)C(=O)N2CCC[C@@H]2C(=O)N1C | 3.1 |
| CCCN1CC(=O)N(C)[C@@H](CC(C)C)C(=O)N[C@H](CC(C)C)C(=O)N2CCC[C@@H]2C(=O)N(C)[C@H](CC(C)C)C(=O)N[C@@H](Cc2ccccc2)C1=O | 6.9 |
| CC(C)C[C@@H]1NC(=O)[C@H]2CCCN2C(=O)C[C@H](Cc2ccccc2)NC(=O)[C@H](CC(C)C)N(C)C(=O)C[C@H](Cc2ccccc2)NC(=O)[C@@H]2CCCN2C(=O)[C@H](Cc2ccccc2)NC1=O | 3.2 |
| CCCN1CC(=O)N[C@H](CC(C)C)C(=O)N[C@@H](CC(C)C)C(=O)N2CCC[C@H]2C(=O)N(Cc2ccccc2)CC(=O)N[C@@H](Cc2ccccc2)C(=O)N2CCC[C@H]2C1=O | 1.4 |
| CC(C)C[C@@H]1NC(=O)[C@H]2CCCN2C(=O)[C@@H](CC(C)C)N(C)C(=O)[C@@H](CC(C)C)NC(=O)[C@H](C)N(C)C(=O)[C@H]2CCCN2C(=O)[C@H](Cc2ccccc2)NC1=O | 0.32 |
| CCCN1CC(=O)N[C@H](CC(C)C)C(=O)N(C)[C@@H](CC(C)C)C(=O)N2CCC[C@H]2C(=O)N(Cc2ccccc2)CC(=O)N[C@@H](Cc2ccccc2)C(=O)N2CCC[C@H]2C1=O | 3.2 |

A selection of 2 entries from above:

compound	PAMPA (10^-6 cm/s)
CCCN1CC(=O)N(C)[C@@H](CC(C)C)C(=O)N[C@H](CC(C)C)C(=O)N2CCC[C@@H]2C(=O)N(C)[C@H](CC(C)C)C(=O)N[C@@H](Cc2ccccc2)C1=O	6.9
CC(C)C[C@H]1NC(=O)C[C@H](Cc2ccccc2)NC(=O)[C@H](Cc2ccccc2)NC(=O)[C@H](CC(C)C)N(C)C(=O)[C@@H]2CCCN2C(=O)[C@H](CC(C)C)N(C)C1=O	9.5

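The data file gives no further conditions (lipid, pH, time, direction or concentration), and values from different papers need not be comparable. The list need not hold all peptides of the study. Peptides that the database sets to -10, its floor, are left out.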

Values of Townsend et al. 2020, doi:10.26434/chemrxiv.13335941.v1, as listed in CycPeptMPDB.